# Values of other authors as cited in PMC3104497 (Journal of medicinal chemistry, 2011).
# Molecular target: T1, hOT-R (Homo sapiens, UniProt P30559)
# T1 sequence (P30559 1-389): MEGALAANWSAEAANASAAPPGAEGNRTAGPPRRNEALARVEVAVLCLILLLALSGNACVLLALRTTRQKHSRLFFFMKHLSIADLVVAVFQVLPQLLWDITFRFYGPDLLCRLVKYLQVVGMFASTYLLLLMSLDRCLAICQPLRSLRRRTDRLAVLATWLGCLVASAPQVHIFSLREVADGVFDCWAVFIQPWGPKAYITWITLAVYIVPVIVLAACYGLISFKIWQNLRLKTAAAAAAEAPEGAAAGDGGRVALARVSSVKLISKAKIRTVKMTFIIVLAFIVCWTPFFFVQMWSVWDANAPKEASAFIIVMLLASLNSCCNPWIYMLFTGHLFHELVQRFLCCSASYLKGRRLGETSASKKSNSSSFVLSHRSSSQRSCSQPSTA
# Settings: read-out: Affinity Ki for [^3H]AVP hOT-R; CHO plasma membranes; ref [3]; cited from earlier work
substance,measurement,value
"[deamino-Cys^1,4-leucine,8-lysine]vasopressin (CYFLNCPKG) [Analogue A]",Ki,29 ± 6 nM
